The values below come from patent US20260053920A1 (published 2026).

Assay [1] addresses Melan A peptide on HLA-A*02:01 (human). Briefly: multimer staining.
Assay [2] has the same target. Put plainly: structure.
Assay [3] has the same target. Briefly: stated without data.

B1: MEL11 (TCR)
alpha TRAV12-2*01 TRAJ30 CDR3: CAVNYEDDKIIF
beta TRBV9 TRBJ2-7 CDR3: CASSVGVQGSWEQYF
On to B1, for which, in assay [1], the binding result is listed as “recognises”.

B2: MEL25 (TCR)
alpha TRAV8-6 TRAJ47 CDR3: CAVSDNGNKLVF
beta TRBV12-4 TRBJ2-7 CDR3: CASSWAGPVEQYF
In the case of B2, the binding result in assay [1] is listed as “recognises”.

B3: MEL8 (TCR, V domains shown)
Valpha: QKEVEQNSGPLSVPEGAIASLNCTYSDRGSQSFFWYRQYSGKSPELIMSIYSNGDKEDGRFTAQLNKASQYVSLLIRDSQPSDSATYLCAVQKLVFGTGTRLLVSP
Vbeta: NAGVTQTPKFQVLKTGQSMTLQCAQDMNHEYMSWYRQDPGMGLRLIHYSVGAGITDQGEVPNGYNVSRSTTEDFPLRLLSAAPSQTSVYFCASSYSFTEATYEQYFGPGTRLTVT
For B3, the binding result in assay [2] is reported as “recognises”.

B4: MEL56 (TCR)
alpha TRAV12-3 TRAJ35 CDR3: CAMSVGFGNVLHC
beta TRBV27 TRBJ2-7 CDR3: CASSLGLAGNEQYF
Take B4: in assay [3], the binding result is “recognises”.

B5: CLL9 (TCR)
alpha TRAV12-2*01 TRAJ9 CDR3: CAVGAGGFKTIF
beta TRBV2*02 TRBJ2-7 CDR3: CASSESPLSGNEQYF
For the molecule B5, the binding result in assay [1] is reported as “recognises”.
